PubChem BioAssay AID651958 (The Scripps Research Institute Molecular Screening Center, 2012)
This is a selection; strong and weak results do not stand in their true shares. Activity calls are given as the source filed them. Rule as the data show it: active = inhibition above about 30%; inactive = the rest.

system: Crimean-Congo hemorrhagic fever virus L polyprotein viral ovarian tumor (vOTU) protease domain; test: CCHFV vOTU protease inhibitors, primary screen, biochemical, Pep-AMC substrate, fluorescence (AID 651958); conditions: at 11.5 µM, hits give high values; also: 0% = vehicle wells with enzyme and 100% = no enzyme wells

Compound | inhibition
CCC(=O)N(c1ccccc1)C1(COC)CCN(CCc2cccs2)CC1 | inactive: -0.98%
CCC(=O)N(c1ccccc1)C1(COC)CCN(CCn2nnn(CC)c2=O)CC1 | inactive: 1.99%
